For data set [1], the system named is RGCs and retinal endothelial cells. Conditions: ref Schlieve et al., 2006; cited from earlier work.
For data set [2] the following is noted: octanol/water, room temperature.
The conditions of data set [3]: over 72 hours, HPLC.
Data set [4] in a line: Accelerated stability of solid compound by HPLC. The format is physicochemical. Conditions: 20°C, extrapolation using the Arrhenius equation.

Consider “bis(3-propionic acid methyl ester) phenylphosphine-borane complex [PB1]”, for which the “no toxicity up to (concentration)” value in data set [1] is recorded as 1 mM. The “log Poct/wat” value in data set [2] came out at 0.6. The substance also returned a solubility in water in data set [3] of 237.8 µM. In data set [4], the calculated half-life is on record as 2 years.

The values are drawn from article PMC5028261 (Neurochemistry international, 2016).
